This is a selection; strong and weak results do not stand in their true shares. The source made the active and inactive calls.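 How the source made its calls: active means inhibition above the campaign mean inhibition plus 3 SD (cut at about 35% in these data); inactive means the rest.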

By UniProt entry, the sequences of proteins in these tests, tags left out.
UniProt P78417, whole entry: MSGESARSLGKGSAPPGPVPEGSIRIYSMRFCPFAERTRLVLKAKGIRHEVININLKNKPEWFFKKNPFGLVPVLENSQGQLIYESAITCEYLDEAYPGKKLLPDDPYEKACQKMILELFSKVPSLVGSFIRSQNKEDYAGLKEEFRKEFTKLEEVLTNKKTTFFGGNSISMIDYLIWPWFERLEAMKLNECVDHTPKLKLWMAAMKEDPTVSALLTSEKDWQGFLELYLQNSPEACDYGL

The target of the assay is Glutathione S-transferase omega-1 (Homo sapiens) (UniProt P78417). Kind of assay: human GSTO1 enzyme inhibition – biochemical, fluorescence polarization, counter-screen for RBBP9 inhibitor project, primary screen (AID 1974).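 Further: 0% = GSTO1-1 with DMSO and 100% = wells lacking GSTO1-1 enzyme.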 As to conditions: recombinant GSTO1, activity-based probe fluorescence polarization; at 5.96 µM; hits give high values.
In the case of `COc1ccc(OP(C)(=O)Nc2ccccn2)cc1` (stereo unspecified), the inhibition was inactive: 11.7%.

These data come from PubChem BioAssay AID1974 (The Scripps Research Institute Molecular Screening Center, 2009).
